Some targets named below: BTK (UniProt Q06187); CHEK2 (UniProt O96017); MAPK3 (UniProt P27361); PKN1 (UniProt Q16512); IRAK1 (UniProt P51617); SIK2 (UniProt Q9H0K1); IKBKB (UniProt O14920); CAMK2D (UniProt Q13557).
Holding throughout (assay): apparent dissociation constant pKd app (kinobead competition) (-log10(M)); higher = stronger binding
A further assay has as its target T1, LATS1 (UniProt O95835).
T1 sequence (whole entry): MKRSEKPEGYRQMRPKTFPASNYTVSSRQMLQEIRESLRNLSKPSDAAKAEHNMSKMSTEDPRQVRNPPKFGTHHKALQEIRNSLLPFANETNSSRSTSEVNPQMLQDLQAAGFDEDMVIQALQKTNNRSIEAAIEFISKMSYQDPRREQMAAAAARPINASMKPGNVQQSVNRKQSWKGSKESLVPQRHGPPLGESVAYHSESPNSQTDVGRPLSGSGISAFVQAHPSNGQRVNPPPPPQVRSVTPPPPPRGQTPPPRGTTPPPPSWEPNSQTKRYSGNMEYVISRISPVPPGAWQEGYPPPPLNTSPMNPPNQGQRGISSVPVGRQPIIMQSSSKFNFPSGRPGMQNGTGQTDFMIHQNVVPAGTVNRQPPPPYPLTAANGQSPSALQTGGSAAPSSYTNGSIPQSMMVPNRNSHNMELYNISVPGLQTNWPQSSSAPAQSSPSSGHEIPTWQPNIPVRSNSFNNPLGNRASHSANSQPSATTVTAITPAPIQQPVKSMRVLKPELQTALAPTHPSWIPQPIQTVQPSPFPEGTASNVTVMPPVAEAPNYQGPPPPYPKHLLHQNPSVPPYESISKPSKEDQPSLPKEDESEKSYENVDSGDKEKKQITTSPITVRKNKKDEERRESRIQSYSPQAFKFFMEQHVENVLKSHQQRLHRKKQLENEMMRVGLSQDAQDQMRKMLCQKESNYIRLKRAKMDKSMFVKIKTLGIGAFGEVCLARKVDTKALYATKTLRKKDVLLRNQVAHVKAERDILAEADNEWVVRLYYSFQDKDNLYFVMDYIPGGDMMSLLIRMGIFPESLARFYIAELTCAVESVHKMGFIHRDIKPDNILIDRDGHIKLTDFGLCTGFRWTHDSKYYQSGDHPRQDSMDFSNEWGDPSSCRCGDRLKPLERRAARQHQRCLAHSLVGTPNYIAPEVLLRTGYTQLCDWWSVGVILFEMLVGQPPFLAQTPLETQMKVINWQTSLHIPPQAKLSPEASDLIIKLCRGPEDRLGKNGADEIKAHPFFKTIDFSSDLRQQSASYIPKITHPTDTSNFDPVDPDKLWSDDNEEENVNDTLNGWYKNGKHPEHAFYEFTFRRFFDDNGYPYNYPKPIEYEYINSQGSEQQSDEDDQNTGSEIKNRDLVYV

Protein sequences, listed by entry. Tags and fused reporters are not part of them. Lines headed by an entry give the natural chain unless they say otherwise; changes in a name come on top.
UniProt Q06187: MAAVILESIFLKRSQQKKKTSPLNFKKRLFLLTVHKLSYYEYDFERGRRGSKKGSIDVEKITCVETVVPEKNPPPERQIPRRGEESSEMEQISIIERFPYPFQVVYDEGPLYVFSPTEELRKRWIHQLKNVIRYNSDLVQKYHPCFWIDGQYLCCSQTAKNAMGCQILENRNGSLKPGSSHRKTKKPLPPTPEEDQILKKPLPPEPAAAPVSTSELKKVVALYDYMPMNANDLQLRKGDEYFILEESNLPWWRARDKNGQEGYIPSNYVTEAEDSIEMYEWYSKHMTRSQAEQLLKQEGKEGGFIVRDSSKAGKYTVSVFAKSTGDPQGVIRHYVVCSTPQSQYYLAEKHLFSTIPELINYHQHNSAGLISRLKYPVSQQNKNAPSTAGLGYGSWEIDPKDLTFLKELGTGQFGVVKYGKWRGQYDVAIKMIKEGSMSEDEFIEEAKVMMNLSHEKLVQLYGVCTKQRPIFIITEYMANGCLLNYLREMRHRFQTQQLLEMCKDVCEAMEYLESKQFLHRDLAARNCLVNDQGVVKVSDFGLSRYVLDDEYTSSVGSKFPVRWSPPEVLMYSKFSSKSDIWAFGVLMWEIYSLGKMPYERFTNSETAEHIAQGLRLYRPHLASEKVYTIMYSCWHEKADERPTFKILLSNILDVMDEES
UniProt O96017, whole entry: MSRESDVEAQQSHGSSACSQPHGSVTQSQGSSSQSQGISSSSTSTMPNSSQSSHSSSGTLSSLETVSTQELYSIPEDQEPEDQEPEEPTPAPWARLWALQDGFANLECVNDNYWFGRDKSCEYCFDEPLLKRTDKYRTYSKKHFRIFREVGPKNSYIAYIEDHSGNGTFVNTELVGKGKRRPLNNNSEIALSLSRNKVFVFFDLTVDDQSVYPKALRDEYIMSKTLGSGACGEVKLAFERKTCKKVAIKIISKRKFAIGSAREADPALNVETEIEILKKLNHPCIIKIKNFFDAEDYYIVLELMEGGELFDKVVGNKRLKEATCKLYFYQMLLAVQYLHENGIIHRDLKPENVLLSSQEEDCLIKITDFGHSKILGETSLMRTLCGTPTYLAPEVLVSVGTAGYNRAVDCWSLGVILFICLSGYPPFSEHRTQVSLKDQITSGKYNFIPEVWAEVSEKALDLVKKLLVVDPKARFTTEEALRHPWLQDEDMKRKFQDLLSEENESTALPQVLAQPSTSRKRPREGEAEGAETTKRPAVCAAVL
UniProt P27361, whole entry: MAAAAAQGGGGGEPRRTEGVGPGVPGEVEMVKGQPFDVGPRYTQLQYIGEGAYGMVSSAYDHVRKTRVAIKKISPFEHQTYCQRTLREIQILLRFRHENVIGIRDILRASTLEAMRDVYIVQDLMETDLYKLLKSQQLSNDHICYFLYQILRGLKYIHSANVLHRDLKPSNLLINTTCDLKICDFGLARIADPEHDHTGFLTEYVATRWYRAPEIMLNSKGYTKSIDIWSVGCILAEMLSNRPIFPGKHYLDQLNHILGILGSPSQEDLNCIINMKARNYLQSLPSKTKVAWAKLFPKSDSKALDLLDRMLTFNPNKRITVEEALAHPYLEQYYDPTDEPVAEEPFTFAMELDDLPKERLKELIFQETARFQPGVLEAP
UniProt Q16512: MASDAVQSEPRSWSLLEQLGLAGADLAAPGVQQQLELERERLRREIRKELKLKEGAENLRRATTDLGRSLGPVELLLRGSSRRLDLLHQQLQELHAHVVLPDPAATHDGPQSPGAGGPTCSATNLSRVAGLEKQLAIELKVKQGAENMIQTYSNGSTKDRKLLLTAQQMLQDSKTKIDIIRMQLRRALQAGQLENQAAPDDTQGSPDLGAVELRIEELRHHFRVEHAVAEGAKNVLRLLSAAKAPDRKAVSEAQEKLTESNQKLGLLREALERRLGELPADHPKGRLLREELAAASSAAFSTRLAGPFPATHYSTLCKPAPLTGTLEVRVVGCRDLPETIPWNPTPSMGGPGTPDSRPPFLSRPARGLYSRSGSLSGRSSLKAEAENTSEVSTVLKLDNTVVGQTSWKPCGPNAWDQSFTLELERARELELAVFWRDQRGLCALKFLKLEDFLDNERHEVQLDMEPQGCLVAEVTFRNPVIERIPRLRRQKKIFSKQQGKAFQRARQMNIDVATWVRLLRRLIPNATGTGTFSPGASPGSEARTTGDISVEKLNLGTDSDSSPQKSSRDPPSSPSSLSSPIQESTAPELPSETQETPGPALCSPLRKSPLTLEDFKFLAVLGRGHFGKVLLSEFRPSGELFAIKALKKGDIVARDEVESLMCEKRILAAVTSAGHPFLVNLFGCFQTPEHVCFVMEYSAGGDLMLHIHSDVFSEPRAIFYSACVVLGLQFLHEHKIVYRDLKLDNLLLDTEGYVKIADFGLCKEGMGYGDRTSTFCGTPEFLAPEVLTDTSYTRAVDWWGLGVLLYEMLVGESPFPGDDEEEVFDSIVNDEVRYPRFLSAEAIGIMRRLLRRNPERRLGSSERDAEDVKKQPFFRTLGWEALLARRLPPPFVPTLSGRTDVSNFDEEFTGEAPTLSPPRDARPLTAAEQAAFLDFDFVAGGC
UniProt P51617, whole entry, looked up: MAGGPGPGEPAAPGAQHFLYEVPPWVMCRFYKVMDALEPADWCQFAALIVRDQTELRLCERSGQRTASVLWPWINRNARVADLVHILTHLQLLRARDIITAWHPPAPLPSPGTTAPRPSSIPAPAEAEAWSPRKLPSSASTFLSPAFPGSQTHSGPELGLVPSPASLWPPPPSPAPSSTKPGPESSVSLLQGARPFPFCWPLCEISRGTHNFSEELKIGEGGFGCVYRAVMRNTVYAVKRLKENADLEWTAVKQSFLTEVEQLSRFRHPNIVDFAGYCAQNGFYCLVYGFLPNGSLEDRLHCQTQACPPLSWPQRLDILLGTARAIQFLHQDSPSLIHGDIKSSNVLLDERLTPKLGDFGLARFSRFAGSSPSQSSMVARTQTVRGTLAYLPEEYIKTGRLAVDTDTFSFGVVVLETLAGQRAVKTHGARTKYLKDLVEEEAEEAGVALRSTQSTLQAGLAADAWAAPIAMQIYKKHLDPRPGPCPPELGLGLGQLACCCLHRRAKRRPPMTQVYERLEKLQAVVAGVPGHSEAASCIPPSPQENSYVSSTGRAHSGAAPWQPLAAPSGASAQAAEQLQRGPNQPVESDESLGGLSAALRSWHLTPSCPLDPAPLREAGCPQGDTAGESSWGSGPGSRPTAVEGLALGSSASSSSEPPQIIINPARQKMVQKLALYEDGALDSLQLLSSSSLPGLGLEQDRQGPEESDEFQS
UniProt Q9H0K1: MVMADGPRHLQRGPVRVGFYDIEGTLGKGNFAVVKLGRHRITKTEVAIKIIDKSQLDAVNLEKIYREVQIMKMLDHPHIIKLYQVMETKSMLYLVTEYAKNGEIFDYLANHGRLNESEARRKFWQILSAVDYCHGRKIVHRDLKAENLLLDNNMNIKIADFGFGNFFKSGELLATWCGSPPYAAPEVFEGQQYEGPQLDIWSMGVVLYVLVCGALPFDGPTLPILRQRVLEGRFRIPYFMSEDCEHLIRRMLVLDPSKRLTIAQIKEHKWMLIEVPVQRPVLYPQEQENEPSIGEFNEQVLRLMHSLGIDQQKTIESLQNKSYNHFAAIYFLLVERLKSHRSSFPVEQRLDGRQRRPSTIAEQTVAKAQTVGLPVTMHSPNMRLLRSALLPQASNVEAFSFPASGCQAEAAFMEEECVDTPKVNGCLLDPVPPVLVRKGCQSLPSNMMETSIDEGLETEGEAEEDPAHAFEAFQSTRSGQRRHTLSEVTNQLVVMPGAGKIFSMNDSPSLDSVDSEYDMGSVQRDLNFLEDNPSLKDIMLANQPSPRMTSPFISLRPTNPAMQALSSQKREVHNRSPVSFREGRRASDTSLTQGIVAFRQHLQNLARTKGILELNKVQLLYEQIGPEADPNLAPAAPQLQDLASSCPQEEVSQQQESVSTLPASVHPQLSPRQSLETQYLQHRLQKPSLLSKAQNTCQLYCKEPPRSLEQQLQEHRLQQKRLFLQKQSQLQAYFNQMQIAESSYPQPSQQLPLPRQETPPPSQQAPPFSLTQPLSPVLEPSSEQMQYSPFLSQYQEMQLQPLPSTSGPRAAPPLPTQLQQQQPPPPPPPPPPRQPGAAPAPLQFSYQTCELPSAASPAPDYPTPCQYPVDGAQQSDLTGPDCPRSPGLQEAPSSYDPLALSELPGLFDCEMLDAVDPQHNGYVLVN
UniProt O14920: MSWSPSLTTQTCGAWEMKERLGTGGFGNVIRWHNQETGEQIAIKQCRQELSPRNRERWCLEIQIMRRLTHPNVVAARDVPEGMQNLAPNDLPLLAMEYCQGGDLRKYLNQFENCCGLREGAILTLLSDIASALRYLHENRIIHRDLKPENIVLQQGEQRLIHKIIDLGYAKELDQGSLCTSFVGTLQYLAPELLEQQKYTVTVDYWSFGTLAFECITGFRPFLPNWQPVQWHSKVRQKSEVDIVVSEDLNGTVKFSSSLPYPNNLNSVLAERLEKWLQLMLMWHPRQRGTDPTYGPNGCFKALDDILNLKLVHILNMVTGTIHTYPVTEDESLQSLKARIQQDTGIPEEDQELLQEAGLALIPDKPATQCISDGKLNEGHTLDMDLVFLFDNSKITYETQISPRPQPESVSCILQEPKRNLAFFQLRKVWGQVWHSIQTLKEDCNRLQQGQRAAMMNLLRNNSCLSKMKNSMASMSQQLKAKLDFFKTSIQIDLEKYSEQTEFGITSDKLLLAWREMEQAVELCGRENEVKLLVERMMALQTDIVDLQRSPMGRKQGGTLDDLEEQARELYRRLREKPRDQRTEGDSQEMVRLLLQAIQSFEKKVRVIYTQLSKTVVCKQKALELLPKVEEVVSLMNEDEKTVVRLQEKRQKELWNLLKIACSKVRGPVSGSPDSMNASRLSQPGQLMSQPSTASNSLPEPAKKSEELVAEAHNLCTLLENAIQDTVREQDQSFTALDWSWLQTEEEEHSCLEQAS
UniProt Q13557, whole entry: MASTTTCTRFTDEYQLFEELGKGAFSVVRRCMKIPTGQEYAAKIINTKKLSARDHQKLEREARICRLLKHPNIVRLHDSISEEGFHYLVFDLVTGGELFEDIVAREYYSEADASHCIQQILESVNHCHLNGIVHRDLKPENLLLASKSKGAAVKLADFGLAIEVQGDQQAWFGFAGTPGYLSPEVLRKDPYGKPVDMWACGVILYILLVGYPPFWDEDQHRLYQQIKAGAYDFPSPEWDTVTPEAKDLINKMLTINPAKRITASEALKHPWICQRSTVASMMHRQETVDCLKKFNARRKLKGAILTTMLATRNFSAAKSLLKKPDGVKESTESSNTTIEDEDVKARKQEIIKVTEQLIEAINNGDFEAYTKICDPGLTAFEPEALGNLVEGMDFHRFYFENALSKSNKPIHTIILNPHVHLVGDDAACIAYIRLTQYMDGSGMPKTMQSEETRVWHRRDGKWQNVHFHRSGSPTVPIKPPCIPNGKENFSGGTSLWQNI

Another assay addresses T2, EPHB4 (UniProt P54760).
T2 sequence (whole entry): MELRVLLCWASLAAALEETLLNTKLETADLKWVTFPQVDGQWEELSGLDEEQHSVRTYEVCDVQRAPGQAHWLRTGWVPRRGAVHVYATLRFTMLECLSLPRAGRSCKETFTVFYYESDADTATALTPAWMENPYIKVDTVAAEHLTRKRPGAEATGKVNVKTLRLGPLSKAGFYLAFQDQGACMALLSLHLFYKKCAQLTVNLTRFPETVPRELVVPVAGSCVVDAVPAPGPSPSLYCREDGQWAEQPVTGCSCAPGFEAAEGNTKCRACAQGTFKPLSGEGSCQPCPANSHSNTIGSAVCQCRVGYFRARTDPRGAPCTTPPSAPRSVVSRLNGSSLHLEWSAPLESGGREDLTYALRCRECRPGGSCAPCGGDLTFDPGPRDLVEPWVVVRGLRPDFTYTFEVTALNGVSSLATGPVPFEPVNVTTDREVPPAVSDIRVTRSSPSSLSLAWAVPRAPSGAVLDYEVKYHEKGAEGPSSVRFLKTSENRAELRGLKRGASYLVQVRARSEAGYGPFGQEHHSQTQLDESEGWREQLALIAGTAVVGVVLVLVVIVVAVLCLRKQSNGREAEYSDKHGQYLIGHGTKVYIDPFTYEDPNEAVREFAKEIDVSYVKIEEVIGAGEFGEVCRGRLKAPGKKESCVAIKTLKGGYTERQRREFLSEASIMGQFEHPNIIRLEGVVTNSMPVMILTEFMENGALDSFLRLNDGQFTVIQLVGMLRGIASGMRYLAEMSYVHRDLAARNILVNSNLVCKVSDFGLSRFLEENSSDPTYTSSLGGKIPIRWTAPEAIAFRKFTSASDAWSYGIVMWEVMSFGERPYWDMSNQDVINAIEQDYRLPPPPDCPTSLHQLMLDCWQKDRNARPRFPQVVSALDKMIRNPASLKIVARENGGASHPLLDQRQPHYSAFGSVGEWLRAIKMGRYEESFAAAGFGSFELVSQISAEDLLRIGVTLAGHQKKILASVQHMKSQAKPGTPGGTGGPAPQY

A value given as a limit tells only on which side of the number the result lay.

Take `NC(=O)c1cccc2cn(-c3ccc([C@@H]4CCCNC4)cc3)nc12` [Niraparib]: the “apparent dissociation constant pKd app (-log10)” value at BTK is under 4.7; on CHEK2 it was under 4.5; on MAPK3 it was under 4.5; at PKN1, under 4.5; at IRAK1 it was under 4.6; at LATS1 it was under 4.5. In addition, the “apparent dissociation constant pKd app (-log10)” value on SIK2 was under 4.8; at EPHB4 it was under 4.7; at IKBKB it was under 4.5; on CAMK2D it was under 5.

As to `Cn1ncnc1[C@H]1c2n[nH]c(=O)c3cc(F)cc(c23)N[C@@H]1c1ccc(F)cc1` [Talazoparib], the “apparent dissociation constant pKd app (-log10)” value at BTK is under 4.7; on CHEK2, under 4.5; on MAPK3 it was under 4.5; at PKN1, under 4.5; at IRAK1, under 4.6; at LATS1 it was under 4.5. Also, the “apparent dissociation constant pKd app (-log10)” value at SIK2 is under 4.8; at EPHB4, under 4.7; at IKBKB, under 4.5; at CAMK2D it was under 5.

Consider `O=C(c1cc(Cc2n[nH]c(=O)c3ccccc23)ccc1F)N1CCN(C(=O)C2CC2)CC1` [Olaparib], for which the “apparent dissociation constant pKd app (-log10)” value on BTK is under 4.7; on CHEK2, under 4.5; at MAPK3, under 4.5; on PKN1, under 4.5; on IRAK1, under 4.6; on LATS1 it was under 4.5. Besides, the “apparent dissociation constant pKd app (-log10)” value at SIK2 was under 4.8; at EPHB4 it was under 4.7; at IKBKB, under 4.5; at CAMK2D it was under 5.

Source of the values: the supplement of paper PMC11403291.
